For data set [1] the following is noted: mice.
The nature of data set [2]: In vivo tolerance and dose-limiting toxicities. Also on record: species or system mice. Particulars: for maximum tolerated (single) dose: single intravenous bolus dose, mice.
The conditions of data set [3]: cited from earlier work.
The conditions of data set [4]: IV, 1 mg/kg; estimated from literature data; cited from earlier work.

Several values for one entry are separate records, joined by “and”; a condition that tells them apart may be missing. Identical values can stand only once. Like-named read-outs stand apart in the source and are kept apart here.

“(E)-3-(2′-{2-[(Methyl l-Phenylalanyl-l-tryptophanate)amino]-2-oxoethoxy}imino) MTM [MTMox32E]”: in data set [1], the “increase in plasma (systemic) exposure relative to MTM” value was 11 fold and > 10 fold. In addition, in data set [1] (IV, 5 mg/kg), the “clearance (CL)” value was 1.5 mL/min/kg, the “dose-normalized systemic exposure (AUC/D)” value amounted to 13596 kg·ng·h/mL/mg and the “volume of distribution (Vd)” value stood at 0.044 L/kg. In data set [2] (25 mg/kg, eight doses at 3-day intervals), the “tolerance of q3dx8 schedule” value was “no weight loss or petechia noted”. Further, the “tolerance of protracted dosing schedules” value in data set [2] (qMWFx2 14 mg/kg, q4dx6 17 mg/kg, q7dx3 25 mg/kg) is reported as “no weight loss, hematologic toxicity, or hepatic toxicity”. In data set [2] (single dose, doses of 35 mg/kg and greater, normalized by day 6), the “alanine aminotransferase (ALT)” value is given as “sharp increase on day 2”. Further, the “maximum tolerated (single) dose” value in data set [2] is given as “approximately 25 mg/kg”. In data set [2] (within 2 days after treatment at doses of 35 mg/kg and greater), the “white blood cells, lymphocytes and platelets” value is recorded as “decreased significantly”.

mithramycin A [MTM]: the pKa in data set [3] is ~ 5. In addition, in data set [4], the “clearance (CL)” value was 24.68 mL/min/kg, the “dose-normalized systemic exposure (AUC/D)” value was 1202 kg·ng·h/mL/mg and the “volume of distribution (Vd)” value is 1.534 L/kg. Besides, the “maximum tolerated (single) dose” value in data set [2] is reported as “approximately 1 mg/kg”.

The values above are taken from publication PMC7810150 (Journal of medicinal chemistry, 2020).
